{"source": "paper PMC6832551", "about": "“An Antiviral Peptide from Alopecosa nagpag Spider Targets NS2B–NS3 Protease of Flaviviruses” (Toxins, 2019)", "origin": "cited, not measured here", "system": "recombinant ZIKV NS2B–NS3 protease", "settings": "interacting with H51 and S135 in the ZIKV NS2B–NS3 protease; cited from earlier work", "from_the_text": "Despite their differences in pathogeneses, DENV and ZIKV are representative, emerging mosquito-borne flaviviruses with similar replication cycles which infect millions of people annually. The non-structural proteins of flaviviruses are important for virus replication and assembly. It has been established that NS2B–NS3 forms the viral protease and NS3 alone serves as the dsRNA helicase. Recently, the NS2B–NS3 protease became an attractive antiviral target, and many of its inhibitors have been reported as potential antivirals. Protease inhibitors are ubiquito ...", "note": "Counter-ions that a name gives are not always drawn."}
{"compound": "CC(C)C[C@H]1C(=O)N2CCC[C@H]2[C@]2(O)O[C@](NC(=O)[C@@H]3C=C4c5cccc6[nH]c(Br)c(c56)C[C@H]4N(C)C3)(C(C)C)C(=O)N12", "note": "[bromocriptine, Bromocriptine mesylate]", "values": [{"measurement": "ZIKV protease activity (in words)", "value": "confirmed to inhibit ZIKV protease activity"}]}
